Experimental data taken from patent US20130123253A1, “MODULATORS OF CENTRAL NERVOUS SYSTEM NEUROTRANSMITTERS” (HUMAN BIOMOLECULAR RESEARCH INSTITUTE, priority 2004, published 2013).
Values joined by “and” are separate entries in the source; they are usually repeats but may differ in a detail not shown here. Equal entries are not always repeated. Where two headings read alike, the source gives them in different places. Each block holds one compound with its values, some of them ahead of it.

The chains behind the UniProt entries cited, without tags or fusion partners.
UniProt P31645, whole entry: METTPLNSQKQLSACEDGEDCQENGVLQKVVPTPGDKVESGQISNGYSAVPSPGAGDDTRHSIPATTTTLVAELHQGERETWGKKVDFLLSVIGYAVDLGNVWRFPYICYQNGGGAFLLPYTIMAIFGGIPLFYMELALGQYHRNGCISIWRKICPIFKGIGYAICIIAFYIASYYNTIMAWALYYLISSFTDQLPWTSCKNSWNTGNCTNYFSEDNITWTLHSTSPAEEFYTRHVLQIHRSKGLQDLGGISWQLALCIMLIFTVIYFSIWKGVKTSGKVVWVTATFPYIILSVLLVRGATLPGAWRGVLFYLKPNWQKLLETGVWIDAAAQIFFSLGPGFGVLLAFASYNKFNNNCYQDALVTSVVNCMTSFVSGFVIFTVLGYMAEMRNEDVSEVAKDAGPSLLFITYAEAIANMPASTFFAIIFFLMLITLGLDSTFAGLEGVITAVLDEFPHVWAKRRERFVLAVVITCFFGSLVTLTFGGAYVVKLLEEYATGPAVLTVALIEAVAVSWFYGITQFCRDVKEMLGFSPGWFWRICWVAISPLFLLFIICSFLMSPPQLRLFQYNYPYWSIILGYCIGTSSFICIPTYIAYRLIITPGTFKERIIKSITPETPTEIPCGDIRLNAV
UniProt Q01959, whole entry: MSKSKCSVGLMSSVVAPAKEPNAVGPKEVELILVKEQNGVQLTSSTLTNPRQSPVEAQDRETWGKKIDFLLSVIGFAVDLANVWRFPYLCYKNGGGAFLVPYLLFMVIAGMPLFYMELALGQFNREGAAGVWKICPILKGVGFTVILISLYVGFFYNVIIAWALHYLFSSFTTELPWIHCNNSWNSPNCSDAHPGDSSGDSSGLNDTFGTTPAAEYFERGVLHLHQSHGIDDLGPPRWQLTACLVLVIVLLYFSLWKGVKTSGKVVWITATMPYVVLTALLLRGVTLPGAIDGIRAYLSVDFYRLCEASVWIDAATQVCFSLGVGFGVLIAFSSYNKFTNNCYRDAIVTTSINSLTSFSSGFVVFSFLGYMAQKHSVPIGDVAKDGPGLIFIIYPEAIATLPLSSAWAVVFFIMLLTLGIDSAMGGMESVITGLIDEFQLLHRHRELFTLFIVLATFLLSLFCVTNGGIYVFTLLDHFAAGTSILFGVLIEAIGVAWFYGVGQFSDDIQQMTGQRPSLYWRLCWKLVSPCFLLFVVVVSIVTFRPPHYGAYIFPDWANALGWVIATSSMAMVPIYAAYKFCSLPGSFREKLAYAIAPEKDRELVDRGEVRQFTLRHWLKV

Columns and labels:
[1] = target: T1, human serotonin transporter (hSERT) (Homo sapiens, UniProt P31645)
[2] = target: T1, human serotonin transporter (hSERT); experiment: Inhibition of [125I]RTI-55 binding in HEK-hSERT cell membranes
[3] = target: T1, human serotonin transporter (hSERT); experiment: cell-based
[4] = target: human dopamine transporter (hDAT) (Homo sapiens, UniProt Q01959); settings: read-out: Reuptake (IC50, nM) hDAT; Table 15; mean ± S.E.M.
[5] = read-out: Binding (Ki, nM) hSERT, Table 1
[6] = Reuptake (Kr, nM) hSERT, Table 1
[7] = read-out: Reuptake (IC50, nM) hSERT
[8] = read-out: Binding (Ki, nM) hSERT
[9] = read-out: hSERT reuptake IC50, text of Example 28
[10] = read-out: hSERT binding Ki, text of Example 28
[11] = Binding (Ki, nM) hSERT, Table 1
[12] = read-out: Reuptake (IC50, nM) hSERT, Table 9, mean ± SEM
[13] = Binding (ki, nM) hSERT, Table 2
[14] = Reuptake (kup, nM) hSERT, Table 2

Compound: NCC1CCC(c2ccc(Cl)cc2)O1 (stereo not drawn) [Compound 15f]
IC50 ([1]; read-out: hSERT reuptake IC50): 31.9 nM | Ki ([2]; read-out: hSERT binding Ki): 1100 nM

Compound: N,N-bis(5′- (1″- naphth- ethyl)- 2′-tetra- hydro- furylethyl) amine
Ki ([1]; read-out: Reuptake (kup, nM) hSERT, Table 2): 718 nM | Ki ([2]; read-out: Binding (ki, nM) hSERT, Table 2): 283 nM

Compound: CNCCC1CCC(CCc2cc(F)ccc2OC)O1 (stereo not drawn) [Compound 24, (2-{5-[2-(5-Fluoro-2-methoxy-phenyl)-ethyl]-tetrahydro-furan-2-yl}-ethyl)-methyl-amine]
IC50 ([1]; read-out: Reuptake (IC50, nM) hSERT, Table 6): 18.4 nM | Ki ([2]; read-out: Binding (Ki, nM) hSERT, Table 15, mean ± S.E.M.): 21.2 ± 4.3 nM

Ki ([2]; Binding (Ki, nM) hSERT, Table 3, mixtures of diastereomers): 80 ± 7 nM | IC50 [3]: 286 ± 134 nM
Compound: COc1ccc(F)cc1CCC1CCC(CCNCCCCCN2N=C(c3ccc(OC)c(OC)c3)C3CC=CC[C@H]3C2=O)O1 (stereo in doubt) [Compound 21, 4-(3,4-Dimethoxy-phenyl)-2-[5-(2-{5-[2-(5-fluoro-2-methoxy-phenyl)-ethyl]-thtrahydro-furan-2-yl}-ethylamino)-pentyl]-4,5,8,8a-tetrahydro-2H-phthalazin-1-one]

Compound: Cc1cc(CCC2CCC(CCN)O2)ccc1F (stereo not drawn) [2-(aminoethyl)-5-(4′-fluoro-3′-methylphenethyl) tetrahydrofuran]
Ki [2, 5]: 688 nM | Ki [3, 6]: 30 nM

Compound: COc1ccc(F)cc1CC[C@@H]1CC[C@H](CN)O1 (relative stereo) [Compound 18j, Cis-2-(aminomethyl)-5-(2′-methoxy-5′-fluorophenethyl)tetrahydrofuran]
Ki ([2]; Binding (Ki, nM) hSERT): 21.9 nM | IC50 ([3]; Reuptake (IC50, nM) hSERT): 11.7 nM

Compound: N-Methyl-2-aminoethyl-5-((2″-methoxy-5″-fluorophenyl)-3′-propyl)tetrahydrofuran
IC50 [1, 7]: 3.1 nM | Ki [2, 8]: 4.5 nM

IC50 [1, 9]: 225 nM | Ki [2, 10]: 2130 nM
Compound: NCC1CCC(CCc2c(F)c(F)c(F)c(F)c2F)O1 (stereo not drawn) [Compound 15h, 2-Aminomethyl-5-pentafluorophenethyltetrahydrofuran]

Ki [2, 11]: 843 nM | Ki [3, 6]: 78 nM
Compound: COc1ccc2ccccc2c1C1CCC(CN)O1 (stereo not drawn) [2-(aminomethyl)-5-(2′-methoxy-1′-naphethyl) tetahydrofuran]

Compound: NCC1CCC(c2ccc(Br)cc2)O1 (stereo not drawn) [Compound 15g]
IC50 ([1]; read-out: hSERT reuptake IC50): 50.3 nM | Ki ([2]; read-out: hSERT binding Ki): 1110 nM

Compound: COc1ccc(C2CCC(CN)O2)cc1 (stereo not drawn) [Compound 15j, 2-Aminomethyl-5-(p-methoxyphenyl)tetrahydrofuran]
IC50 [1, 12]: 617 ± 150 nM | IC50 [1, 9]: 617 nM | Ki [2, 10]: 6880 nM

Ki [2, 13]: 87 nM and 660 nM | Ki [3, 14]: 3470 nM
Compound: c1ccc(CCC2CCC(CCNCCC3CCC(CCc4ccccc4)O3)O2)cc1 (stereo not drawn) [N,N-bis(5′-phenethyl-2′-tetrahydro-furyl-ethyl) Amine]

Compound: NCC1CCC(c2ccccc2)O1 (stereo not drawn) [Compound 15b, 2-Aminomethyl-5-phenyltetrahydrofuran]
IC50 ([1]; read-out: hSERT reuptake IC50): 1710 nM | Ki ([2]; read-out: hSERT binding Ki): 43 nM

Ki [2, 11]: 256 nM | Ki [3, 6]: 125 nM
Compound: Cc1cc(CCC2CCC(CN)O2)ccc1F (stereo not drawn) [2-(aminomethyl)-5-(4′-fluoro-3′-methylphenethyl) tetrahydrouran]

Ki [2, 11]: > 10000 nM | Ki [3, 6]: > 10000 nM
Compound: CC(C)(C)c1ccc(CCC2CCC(CCN)O2)cc1 (stereo not drawn) [2-(aminoethyl)-5-(4′-t-butyl-phenethyl) tetrahydrofuran]

Compound: NCC1CCC(c2cccc3ccccc23)O1 (stereo not drawn) [Compound 15e, 2-(Aminomethyl)-5-(1′-naphthyl)tetrahydrofuran]
IC50 [1, 7]: 24 ± 1.2 nM

Compound: Cc1cc(CCC2CCC(CCN)O2)ccc1F (stereo not drawn) [Compound 17c, 2-Aminoethyl-5-(4′-fluoro-3′-methylphenethyl)tetrahydrofuran]
IC50 [1, 9]: 30 nM | Ki [2, 10]: 688 nM

Compound: 2-(Aminomethyl)-5-(3′-pyridinylethyl)tetrahydrofuran [Compound 15i]
IC50 [1, 12]: 2720 ± 718 nM | IC50 [1, 9]: 2720 nM | Ki [2, 10]: 4550 nM

Compound: CC(C)(C)c1ccc(C2CCC(CN)O2)cc1 (stereo not drawn) [Compound 15k, 2-Aminomethyl-5-(p-t-butylphenyl)tetrahydrofuran]
IC50 [1, 12]: 636 ± 191 nM | IC50 [1, 9]: 636 nM

Compound: NCCC1CCC(Cc2ccccc2)O1 (stereo not drawn) [Compound 17d, 2-(2′-aminoethyl)-5-benzyltetrahydrofuran]
IC50 [1, 7]: 2260 ± 203 nM | Ki [2, 8]: 3820 ± 882 nM | Ki ([2]; read-out: hSERT binding Ki): 3820 nM

Ki [2, 5]: 2130 nM | Ki [3, 6]: 225 nM
Compound: NCC1CCC(CCc2c(F)c(F)c(F)c(F)c2F)O1 (stereo not drawn) [2-(aminomethyl)-5-(pentafluoro-phenethyl) tetrahydrofuran]

Ki [2, 11]: 489 nM | Ki [3, 6]: 712 nM
Compound: NCCC1CCC(CCc2ccc3ccccc3c2)O1 (stereo not drawn) [2-(aminoethyl)-5-(2′-naphthylethyl) tetrahydrofuran]

IC50 [1, 9]: 4040 nM | Ki [2, 10]: 7480 nM
Compound: NCCC1CCC(CCc2ccc(O)cc2)O1 (stereo not drawn) [Compound 17e, 2-Aminoethyl-5-(4′-hydroxyphenethyl)tetrahydrofuran]

Compound: COc1ccc(C2=NNC(=O)[C@@H]3CC=CC[C@H]23)cc1OC (racemic) [Compound 19, 4-(3,4-Dimethoxy-phenyl)-4a,5,8,8a-tetrahydro-2H-phthalazin-1-one, reference compound]
Ki ([2]; Binding (Ki, nM) hSERT, Table 15, mean ± S.E.M.): > 100000 nM | Ki ([2]; hSERT binding Ki, Example 29): > 109000 nM | IC50 [3]: > 100000 nM

Compound: NCCC1CCC(CCc2cccnc2)O1 (stereo not drawn) [2-(aminoethyl)-5-(3′-pyridylethyl) tetrahydrofuran]
Ki [2, 11]: 5690 nM | Ki [3, 6]: 5580 nM

Ki [2, 11]: 2520 nM | Ki [3, 6]: 628 nM
Compound: COc1ccc(CCC2CCC(CCN)O2)cc1 (stereo not drawn) [2-(aminoethyl)-5-(4′-methoxy-phenethyl) tetrahydrofuran]

IC50 [1, 9]: 129 nM | Ki [2, 10]: 68 nM
Compound: NCC1CCC(CCc2ccccc2)O1 (stereo not drawn) [Compound 15d, 2-(Aminomethyl)-5-phenethyltetrahydrofuran]

Ki [2, 11]: 30 nM and 39 nM | Ki [3, 6]: 73 nM
Compound: NCCC1CCC(CCc2cccc3ccccc23)O1 (stereo not drawn) [2-(aminoethyl)-5-(1′-naphethyl) tetrahydrofuran]

Compound: NCCC1CCC(CCc2ccccc2)O1 (stereo not drawn) [MM-II-41]
Ki [2, 11]: 1300 nM and 2730 nM | Ki [3, 6]: 161 nM and 1590 nM

Ki [2, 13]: 730 nM | Ki [3, 14]: 3690 nM
Compound: CN(CCC1CCC(CCc2ccccc2)O1)CCC1CCC(CCc2ccccc2)O1 (stereo not drawn) [N,N-bis(5′-phenethyl-2′-tetra-hydro-furylethyl) methyl-amine]

Compound: COc1ccc(F)cc1CCCC1CCC(CCN)O1 (stereo not drawn) [Compound 15, 2-Aminoethyl-5-(3′-(2″-methoxy-5″-fluorophenyl)-1′-propyl)tetrahydrofuran]
IC50 [4]: 17000 ± 1350 nM

Compound: COc1ccc(C2=NNC(=O)C3CC=CCC23)cc1OC (racemic) [Compound 19, 4-(3,4-Dimethoxy-phenyl)-4a,5,8,8a-tetrahydro-2H-phthalazin-1-one, reference compound]
Ki ([2]; Binding (Ki) hSERT, Table 3, uM): > 100000 nM | IC50 [3]: > 100000 nM
